Measurements reported in PubChem BioAssay AID602217 (Sanford-Burnham Center for Chemical Genomics, 2012).
Active and inactive are the calls of the source.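 How the source made its calls: active means IC50 at or below a set limit; inactive means the rest.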

Tested on: HL-1 cardiomyocytes, 2-deoxyglucose injury, ATPLite luminescence, 2 h
Assay: 2-DG-induced HL-1 ATP loss suppression – cell-based, ATPLite luminescence, dose response (AID 602217);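 further: cells kept in glucose-free DMEM during the 2-deoxyglucose injury; potency of protection where actives preserve ATP signal against 2-deoxyglucose stress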

## NC(=O)c1ccsc1NC(=O)c1ccc([N+](=O)[O-])o1
  IC50: inactive: > 79 µM
